# According to patent US20240376433A1, “STEM CELL INDUCTION INTO PRECHONDROCYTES AND DIFFERENTIATION INTO CHONDROCYTES BY CIPROFLOXACIN” (SMART CELL LAB CO., LTD., priority 2021, published 2024):
# System: stem cells
# Conditions: treated up to 6 μM, up to 166 hours, CCK-8 absorbance
structure (smiles),measurement,value
O=C(O)c1cn(C2CC2)c2cc(N3CCNCC3)c(F)cc2c1=O [ciprofloxacin],cytotoxicity,did not exhibit cytotoxicity
